Antibody variant affinities, Ab-91 heavy chain, assay 2

All variants were tested on one target, the spike HR2 peptide PDVDLGDISGINAS (SARS-CoV-2).

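Variants in AAYL51 differ from the parent at up to three CDR positions; double and triple changes were sampled at random. In AlphaSeq, yeast of one mating type display the scFv and yeast of the other type display the target. The frequency of each diploid, read from paired DNA barcodes, reflects how well the two displayed proteins bind. Each replicate has its own calibration line, from reference interactions of the BCL2 family. The assay was run in three technical replicates.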

Parent scFv Ab-91: VL joined to VH by a 15-residue (Gly4Ser)3 linker. Changes lie in the heavy chain CDRs alone.
VL: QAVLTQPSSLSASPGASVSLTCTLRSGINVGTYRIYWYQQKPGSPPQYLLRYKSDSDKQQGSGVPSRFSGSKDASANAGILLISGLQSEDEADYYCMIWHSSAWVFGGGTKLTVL
VH: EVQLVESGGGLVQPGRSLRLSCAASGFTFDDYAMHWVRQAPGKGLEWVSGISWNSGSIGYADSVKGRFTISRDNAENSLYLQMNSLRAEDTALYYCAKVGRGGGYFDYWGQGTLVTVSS

Each variant is given by its three heavy chain CDRs, as the data file delimits them; those of the parent are GFTFDDYAMH, GISWNSGSIGYADSVK, VGRGGGYFDY.
Kd is apparent (estimated from mating counts) and averaged on the log scale over replicates with a signal. Smaller is tighter.
"nd" means that the variant was in the library but no mating with the target was seen in any replicate; the authors take this as a sign of poor binding, and no number exists.
Entries are sorted by rising average, undetected variants last.
Nonspecific signal, from three strains lacking the peptide, appeared in 21% of pairings of library AAYL51, centred on 34 µM (5% of these signals below 1.8 µM); values are not corrected for it.

| CDR-H1 | CDR-H2 | CDR-H3 | Kd (apparent) | replicates with signal |
|---|---|---|---|---|
| GFTFDEYAMH | GISWNSQSIGYADSVK | VGRGGGYFDA | 4.8 nM | 3/3 |
| GFTFDDYAMH | GISWNSGSIGYLDSVK | VGRGIGYFDY | 8.9 nM | 3/3 |
| GFTFDDYAMH | GISWNSGSIGYADSVK | WGRGGGYEDY | 16 nM | 3/3 |
| GFTFDDHAMH | GISWNSGSIGYEDSVK | VGRGCGYFDY | 30 nM | 3/3 |
| GFFFDDYAMH | GISSNSGSIGYADVVK | VGRGGGYFDY | 32 nM | 3/3 |
| GGTFDDWAMH | GISWNSGSIGYADSVK | VGRGKGYFDY | 47 nM | 3/3 |
| GFHMDPYAMH | GISWNSGSIGYADSVK | VGRGGGYFDY | 56 nM | 3/3 |
| GFTFDHYAMH | GISWNSGSIGYADSVK | VGRGGHYFAY | 59 nM | 3/3 |
| GFTFDQYAMH | GISWNSGSIGYADVVK | VGRGGGYFDY | 99 nM | 2/3 |
| GFTFDDYAMH | GISANSGSIGYADSDG | VGRGGGYFDY | 260 nM | 3/3 |
| GFTFDDYAMH | GVSWNSGPIGYADSVK | VGRGGGYFHY | 2.6 µM | 1/3 |
| GFTFMDYAMR | GISWNSGSLGYADSVK | VGRGGGYFDY | 2.7 µM | 1/3 |
| GFTFDDYAMG | GISVNSGSIGYADSVC | VGRGGGYFDY | 2.8 µM | 1/3 |
| GFTFDDYAMH | HISWNSGSIGNADSVK | VGRNGGYFDY | 2.8 µM | 1/3 |
| GFTFDDYAMH | GVSWNSGHIGYADSVK | VGRGGGYFDY | 3.6 µM | 3/3 |
| GFTFDDQAMH | GISWNSGSSGYADSVK | VGRGGGGFDY | 3.6 µM | 1/3 |
| GFHFDDYAMH | GISVNSGSPGYADSVK | VGRGGGYFDY | 4.2 µM | 3/3 |
| GFHFDDYYMH | GISWNSGSIGYADSVK | VGRGGGYFDY | 4.3 µM | 1/3 |
| GNTFDDYPMH | GISWNSGSIGYADSVK | VGRGGGYFSY | 4.7 µM | 1/3 |
| GFCFDDYAMH | GISWNSGSIGYAWSVK | VGRGGGGFDY | 4.7 µM | 1/3 |
| GFTFDDYAMH | GISNNTGPIGYADSVK | VGRGGGYFDY | 5.1 µM | 1/3 |
| FFTFDDYAMH | GISWHSGSIGYADSVK | VGRGGGYFRY | 5.9 µM | 1/3 |
| GFTFDDYAMH | GYSWNSGSEGYADSVK | VGRGQGYFDY | 6.7 µM | 1/3 |
| GFTFDDYAMH | GISWNSGSILYADSVK | VGRGGGMYDY | 7.9 µM | 2/3 |
| GFCFDDYAMH | GISWNSSSIGYADSVK | VGRQGGYFDY | 11 µM | 2/3 |
| GFDFDDYAMH | GISWNSGSIGYADMVK | YGRGGGYFDY | 21 µM | 2/3 |
| GFTFDWYAMH | GISWNSGSIGYADCVK | VGRRGGYFDY | 23 µM | 2/3 |
| GFTFDDYAMH | GISWNQGSIGYWDSVK | VGFGGGYFDY | 23 µM | 1/3 |
| GFHFDDHAMH | GISWNSGSGGYADSVK | VGRGGGYFDY | 36 µM | 2/3 |
| GFTFFDYAMH | GISWNSSSIGYADPVK | VGRGGGYFDY | 39 µM | 3/3 |
| GKTFDDYAMH | GISWNSGAIGYADSVK | VGRGGGDFDY | 40 µM | 1/3 |
| GFTCDDYAMH | GISRNSGSIGYADSVK | VGRGGGYFDY | 50 µM | 3/3 |
| GFTFDDYAMH | GISWNFNSIGYADSVK | VGRGYGYFDY | 51 µM | 3/3 |
| GHTFDDSAMH | GISWNSGSIGYADSVK | CGRGGGYFDY | 54 µM | 2/3 |
| GFTFDDYAMH | GVSWNSGSIGYADSVK | VGVGGGYCDY | 60 µM | 3/3 |
| GFTFDDYAMH | GISRGSGSIGYADSVK | RGRGGGYFDY | 74 µM | 1/3 |
| GFTFDDYAMH | QIYWNSGSIGYADSVD | VGRGGGYFDY | 120 µM | 3/3 |
| GFTFKDYATH | GISWNSGDIGYADSVK | VGRGGGYFDY | 160 µM | 2/3 |
| GFTFDDYAMH | GISWNSGLIGYADSVK | SGRGGGYFPY | 160 µM | 3/3 |
| GPTFDDYAMK | GISWNSGSIGYADSVK | VVRGGGYFDY | 210 µM | 3/3 |
| GFTFDDYAMH | GISWNSGKIGYADSVK | VGVGGGRFDY | 220 µM | 1/3 |
| GFTFDDYAMH | GIYWNIGSIGYADSVK | VGRGHGYFDY | 230 µM | 2/3 |
| GFSFDDYAMK | GISWNSGSIGYADSVK | VGRGGGYFDG | 270 µM | 3/3 |
| GFTFDDYAMH | GWSWNSGSIGYAASVK | VCRGGGYFDY | 320 µM | 2/3 |
| GFTFDDYAMH | GISPNSGSIGYADSAK | VGRGGYYFDY | 400 µM | 1/3 |
| GFTFDDYAMH | GGSWNIGSIGYADKVK | VGRGGGYFDY | 430 µM | 2/3 |
| GFTFDDYAMH | GISWNSGSIGYADSMC | VGRGGGYFQY | 560 µM | 2/3 |
| GYTFDDYAMW | GISWNSGSIGYADSVK | VGRPGGYFDY | 1.1 mM | 1/3 |
| GFHFDDYAMH | GISWNSGSAGYADSVK | EGRGGGYFDY | nd | 0/3 |
| GFTFDDYAMH | GISWNSGSIKYAEKVK | VGRGGGYFDY | nd | 0/3 |
| GFTFPDYAVH | GISWNYGSIGYADSVK | VGRGGGYFDY | nd | 0/3 |
| GFTFDDYAEH | GISWNSGSFGYADSVK | VARGGGYFDY | nd | 0/3 |
| GRTFDDYAMH | GISWNSGSIKYADSVK | VGRGGGYFDY | nd | 0/3 |
| GFTFDDYAHC | GISWNSGSIGYADSMK | VGRGGGYFDY | nd | 0/3 |
| GFTFDDYAMH | EISWNSGSIGYADSVK | VGRGGGYMDY | nd | 0/3 |
| GFTDDDYAMH | GISWNFGSIGYADSVK | VGRGGGEFDY | nd | 0/3 |
| GFTFDDYAEH | GISWNSGSIGYADSVK | VGGGGGYFPY | nd | 0/3 |
| GFTFTDYAMH | GISWNSGSKGFADSVK | VGRGGGYFDY | nd | 0/3 |
| GFTFDDYADH | DISWNSGSIGYADSVK | VGRGGGYGDY | nd | 0/3 |
| GFTFDDFAMH | GISINSGSIGYHDSVK | VGRGGGYFDY | nd | 0/3 |
| GFTFDWGAMH | GIFWNSGSIGYADSVK | VGRGGGYFDY | nd | 0/3 |
| FTTFDDYAMH | PISWNSGSIGYADSVK | VGRGGGYFDY | nd | 0/3 |
| GFTFDDYAMH | GISWPSGSIGYADAVK | VMRGGGYFDY | nd | 0/3 |
| GFTFTDYAKH | GISWNSGSIGYADSVK | VGRGGRYFDY | nd | 0/3 |
| GFTFDDYAMH | GTSWNSGSIGYADSVK | VGRRGGYFDD | nd | 0/3 |
| GFTFDDYAMA | GISWNSGNIGYADSDK | VGRGGGYFDY | nd | 0/3 |
| GFTFDWYAMH | GSSWNSWSIGYADSVK | VGRGGGYFDY | nd | 0/3 |
| GFTFDDYAMH | GISWNSGSIGYADSVK | VGEGGWYFQY | nd | 0/3 |
| GFTFDDYSMF | GISWNSGSIGYADSTK | VGRGGGYFDY | nd | 0/3 |
| GFTFDDYAMH | GISWNAGRIGYADSCK | VGRGGGYFDY | nd | 0/3 |
| GFTFDDYAMH | GIGWNSMSIGYADSVK | VGRGGGYFDY | nd | 0/3 |
| GFTFDDYAMH | GISYNSGSIGYADSVK | VGPGGGYFDY | nd | 0/3 |
| GFTFDPYAMH | GISWNSGSIGYADSHK | VGRGGGYPDY | nd | 0/3 |
| GFNFDTYAMH | DISWNSGSIGYADSVK | VGRGGGYFDY | nd | 0/3 |
| GFTFDDYTMH | GHSWNSGSIGYADSVK | VNRGGGYFDY | nd | 0/3 |

Reference: Engelhart et al. 2022, doi:10.1038/s41597-022-01779-4. File: FLAb, binding data.